Values after ≈ are worked out from the molar mass of the structure shown.
Legend:
[1] = tested on: M. luteus DSM1790; assay: MIC determination (microdilution); type: cell-based
[2] = tested on: E. coli DH5α; assay: MIC determination (microdilution); type: cell-based; conditions: Escherichia coli
Experimental: (§1) E. coli growth inhibition assay
(§2) liquid culture were conducted.
(§3) All assays were set up in triplicates.
(§4) scanner (Epson) with argusX.
(§5) overnight at 37 °C, 200 rpm shaking.
(§6) 95 μL of the inoculum were applied
(§7) Previously, the dry antibiotic compounds were
(§8) The antimicrobial effect of the solvent
(§9) Both microdilution trays and agar plates
(§10) DNA-Gyrase inhibition testing
(§11) The final DMSO concentration was 3%.
(§12) AlbA and its mutants were diluted in […]

By UniProt entry, the sequences of proteins in these tests, tags left out.
UniProt P0AES4, whole entry: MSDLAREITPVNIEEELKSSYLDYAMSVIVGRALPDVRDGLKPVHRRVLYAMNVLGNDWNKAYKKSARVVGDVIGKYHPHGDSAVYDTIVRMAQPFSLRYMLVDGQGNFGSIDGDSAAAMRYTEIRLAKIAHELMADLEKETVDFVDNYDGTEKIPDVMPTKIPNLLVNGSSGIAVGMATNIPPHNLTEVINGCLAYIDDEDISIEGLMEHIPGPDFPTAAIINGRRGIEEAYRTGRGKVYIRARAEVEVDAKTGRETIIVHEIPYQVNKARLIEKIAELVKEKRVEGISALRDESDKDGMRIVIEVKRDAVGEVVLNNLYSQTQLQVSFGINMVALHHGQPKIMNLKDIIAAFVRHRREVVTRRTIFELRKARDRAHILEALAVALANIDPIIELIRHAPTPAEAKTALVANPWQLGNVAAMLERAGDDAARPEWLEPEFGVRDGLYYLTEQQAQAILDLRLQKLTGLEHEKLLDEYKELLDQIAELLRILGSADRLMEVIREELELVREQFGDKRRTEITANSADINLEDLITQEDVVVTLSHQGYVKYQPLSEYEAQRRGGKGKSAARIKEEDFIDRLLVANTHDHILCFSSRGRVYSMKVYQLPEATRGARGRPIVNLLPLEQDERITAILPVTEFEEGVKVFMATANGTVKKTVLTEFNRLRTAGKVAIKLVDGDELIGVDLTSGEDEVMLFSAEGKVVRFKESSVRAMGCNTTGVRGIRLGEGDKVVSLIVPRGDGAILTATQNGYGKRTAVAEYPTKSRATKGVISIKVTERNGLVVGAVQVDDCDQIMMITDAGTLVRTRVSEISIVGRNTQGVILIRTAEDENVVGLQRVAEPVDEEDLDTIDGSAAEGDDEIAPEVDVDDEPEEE

[3] = tested on: B. subtilis DSM10; assay: MIC determination (microdilution); type: cell-based; conditions: MHBII, 37 °C, 20 h
Experimental: as §1, §2, §3, §4, §5, §6, §7, §8, §9, §10, §11, §12

[4] = tested on: M. phlei DSM750; assay: MIC determination (microdilution); type: cell-based; conditions: MHBII, 37 °C, 20 h
Experimental: as §1, §2, §3, §4, §5, §6, §7, §8, §9, §10, §11, §12

[5] = biological target: T1, E. coli gyrase (Escherichia coli, UniProt P0AES4+P0AES6); type: biochemical; design: key: 0, equal to the activity of albicidin; -, lower than the activity of albicidin; +, higher than the activity of albicidin; conditions: 45 nM compound, relative to albicidin, 37 °C, 30 min
T1 construct: purchased Inspiralis Limited, Norwich, UK

Row | Molecule | MIC ([1]; Micrococcus luteus, DSM1790, 20 h, read-out: MIC M. Luteus DSM1790) [µg/mL] | MIC [2] [µg/mL] | MIC M. Luteus DSM1790 ([1]; MHBII, 37 °C, 20 h) [µg/mL] | MIC B. subtilis DSM10 [3] [µg/mL] | MIC M. Phlei DSM750 [4] [µg/mL] | gyrase inhibition [5]
1 | COc1c(NC(=O)c2ccc(NC(=O)c3ccc(NC(=O)[C@H](CC#N)NC(=O)c4ccc(NC(=O)/C(C)=C/c5ccc(O)cc5)cc4)cc3)c(OC)c2O)ccc(C(=O)O)c1O [Compound 1, albicidin] | 2 (≈ 2.37 µM) | ≤ 0.016 | – | – | – | –
2 | guanidino-albicidin [Compound 20] | – | – | > 8 | > 8 | > 8 | +

Reference: PMC10189885, “Transcription activation by the resistance protein AlbA as a tool to evaluate derivatives of the antibiotic albicidin” (Chemical Science, 2023)
